From US20230165831A1, “METHOD AND COMPOSITION FOR RENDERING CANCER CELLS SUSCEPTIBLE TO TREATMENT BY TARGETED ONCOGENETIC DRIVERS” (IMPACT BIOLIFE SCIENCE, INC., priority 2021, published 2023)

Legend:
[1] = system: pancreatic cancer line Capan-1 cells; assay: CTG (CellTiter-Glo) cell viability assay, 6×6 combo matrix, 72 h, Capan-1; assay type: cell-based
Protocol: To measure the cell inhibition effect of compounds and synergy effect of test articles on ten (10) cell lines using standard CTG assay.
b. A549, T47D, SK-OV-3, MKN45, SK-Hep-1, HT-29, Capan-1, 786-O and LNCaP cell line, for compounds and vehicle groups, the seeding density of cell lines is 3000 cells/80 µL per well. For blank groups, add 100 µL medium. For PBS groups, add 100 µL PBS.
8) Incubate the U87MG, A549, T47D, SK-OV-3, MKN45, SK-Hep-1, HT-29, Capan-1, 786-O and LNCaP cells overnight at 37° C./5% CO2.
5) Incubate the plates at 37° C./5% CO2 for 72 hours.
6) Read plates in Envision.

[2] = system: gastric cancer line MKN45 cells;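 further: MKN45 cell viability read as CellTiter-Glo luminescence after 72 h culture at 37 °C under 5% CO2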
[3] = system: colorectal cancer line HT29 cells; assay: CTG (CellTiter-Glo) cell viability assay, 6×6 combo matrix, 72 h, HT29;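 further: cells exposed to compounds for 72 hours at 37 °C under 5% CO2, then viability read as luminescence after adding CellTiter-Glo Reagent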
[4] = system: lung adenocarcinoma line A549 cells; assay: CTG (CellTiter-Glo) cell viability assay, 6×6 combo matrix, 72 h, A549;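 further: luminescent ATP readout with CellTiter-Glo after compound exposure, used to assess growth inhibition and combination synergy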
[5] = system: gastric cancer line MKN45 cells; assay: CTG (CellTiter-Glo) cell viability assay, 6×6 combo matrix, 72 h, MKN45;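 further: MKN45 cell viability read as CellTiter-Glo luminescence after 72 h culture at 37 °C under 5% CO2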
[6] = system: kidney cancer line 786-O cells; assay: CTG (CellTiter-Glo) cell viability assay, 6×6 combo matrix, 72 h, 786-O;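 further: luminescence read-out after adding CellTiter-Glo reagent, with cells incubated at 37 °C under 5% CO2 during compound exposure, part of a ten cell line synergy study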
[7] = system: ovarian cancer line SK-OV3 cells; assay: CTG (CellTiter-Glo) cell viability assay, 6×6 combo matrix, 72 h, SK-OV-3;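 further: luminescent signal read after CellTiter-Glo addition, cells exposed to compounds for 72 h at 37 °C under 5% CO2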

Which “Relatively Cell inhibition of vehicle control(%)” value ([1]; Dox 16 nM only) does the source give for COc1cccc2c1C(=O)c1c(O)c3c(c(O)c1C2=O)C[C@@](O)(C(=O)CO)C[C@@H]3O[C@H]1C[C@H](N)[C@H](O)[C@H](C)O1 [doxorubicin] here?
Its value is 14.70%.

And the “Relatively Cell inhibition of vehicle control(%)” value ([1]; Dox 80 nM only)?
Its value is 36.03%.

What about the “Relatively Cell inhibition of vehicle control(%)” value ([1]; Dox 400 nM only) of the same compound?
Its value is 66.58%.

What about the “Relatively Cell inhibition of vehicle control(%)” value ([1]; Dox 2000 nM only) of the same compound?
The value was 86.15%.

And the “Relatively Cell inhibition of vehicle control(%)” value ([1]; Dox 10000 nM only)?
The value was 76.46%.

What about the inhibition [2] of the same compound?
Its inhibition is 2.79%.

And the “Relatively Cell inhibition of vehicle control(%)” value ([3]; Dox 16 nM only (Myr 0))?
The value was -0.43%.

What about the “Relatively Cell inhibition of vehicle control(%)” value ([3]; Dox 80 nM only (Myr 0)) of the same compound?
Its value is 28.95%.

And the “Relatively Cell inhibition of vehicle control(%)” value ([3]; Dox 400 nM only (Myr 0))?
The value was 52.68%.

What about the “Relatively Cell inhibition of vehicle control(%)” value ([3]; Dox 2000 nM only (Myr 0)) of the same compound?
The value was 91.27%.

And the “Relatively Cell inhibition of vehicle control(%)” value ([3]; Dox 10000 nM only (Myr 0))?
Its value is 82.88%.

And the “Relatively Cell inhibition of vehicle control(%)” value ([4]; Dox 16 nM only)?
The value was 17.90%.

What about the “Relatively Cell inhibition of vehicle control(%)” value ([4]; Dox 80 nM only) of the same compound?
Its value is 45.26%.

And the “Relatively Cell inhibition of vehicle control(%)” value ([4]; Dox 400 nM only)?
Its value is 61.50%.

And the “Relatively Cell inhibition of vehicle control(%)” value ([4]; Dox 2000 nM only)?
Its value is 95.63%.

And the “Relatively Cell inhibition of vehicle control(%)” value ([4]; Dox 10000 nM only)?
Its value is 94.29%.

What about the “Relatively Cell inhibition of vehicle control(%)” value ([5]; Dox 16 nM only (Myr 0)) of the same compound?
Its value is 9.08%.

What about the “Relatively Cell inhibition of vehicle control(%)” value ([5]; Dox 80 nM only (LB-1 0)) of the same compound?
The value was 28.50%.

And the “Relatively Cell inhibition of vehicle control(%)” value ([5]; Dox 80 nM only (Myr 0))?
Its value is 32.23%.

And the “Relatively Cell inhibition of vehicle control(%)” value ([5]; Dox 400 nM only (LB-1 0))?
Its value is 65.75%.

And the “Relatively Cell inhibition of vehicle control(%)” value ([5]; Dox 400 nM only (Myr 0))?
The value was 71.19%.

And the “Relatively Cell inhibition of vehicle control(%)” value ([5]; Dox 2000 nM only (LB-1 0))?
Its value is 95.07%.

And the “Relatively Cell inhibition of vehicle control(%)” value ([5]; Dox 2000 nM only (Myr 0))?
The value was 93.78%.

What about the “Relatively Cell inhibition of vehicle control(%)” value ([5]; Dox 10000 nM only (LB-1 0)) of the same compound?
Its value is 73.01%.

And the “Relatively Cell inhibition of vehicle control(%)” value ([5]; Dox 10000 nM only (Myr 0))?
Its value is 81.99%.

What about the “Relatively Cell inhibition of vehicle control(%)” value ([6]; Dox 80 nM only (LB-1 0)) of the same compound?
The value was 24.26%.

And the “Relatively Cell inhibition of vehicle control(%)” value ([6]; Dox 400 nM only (LB-1 0))?
Its value is 62.24%.

And the “Relatively Cell inhibition of vehicle control(%)” value ([6]; Dox 2000 nM only (LB-1 0))?
The value was 77.77%.

And the “Relatively Cell inhibition of vehicle control(%)” value ([6]; Dox 10000 nM only (LB-1 0))?
The value was 79.94%.

What about the “Relatively Cell inhibition of vehicle control(%)” value ([7]; Dox 16 nM only (myricetin matrix)) of the same compound?
The value was 1.98%.

What about the “Relatively Cell inhibition of vehicle control(%)” value ([7]; Dox 80 nM only (LB-1 matrix)) of the same compound?
The value was 40.49%.

And the “Relatively Cell inhibition of vehicle control(%)” value ([7]; Dox 80 nM only (myricetin matrix))?
The value was 36.36%.

What about the “Relatively Cell inhibition of vehicle control(%)” value ([7]; Dox 400 nM only (LB-1 matrix)) of the same compound?
Its value is 72.01%.

And the “Relatively Cell inhibition of vehicle control(%)” value ([7]; Dox 400 nM only (myricetin matrix))?
The value was 69.42%.

And the “Relatively Cell inhibition of vehicle control(%)” value ([7]; Dox 2000 nM only (LB-1 matrix))?
The value was 91.55%.

What about the “Relatively Cell inhibition of vehicle control(%)” value ([7]; Dox 2000 nM only (myricetin matrix)) of the same compound?
The value was 91.18%.

What about the “Relatively Cell inhibition of vehicle control(%)” value ([7]; Dox 10000 nM only (LB-1 matrix)) of the same compound?
The value was 84.35%.

And the “Relatively Cell inhibition of vehicle control(%)” value ([7]; Dox 10000 nM only (myricetin matrix))?
Its value is 85.70%.
